{
  "source": "patent US20130205416A1",
  "about": "“ANTI-VIRAL AGENT” (priority 2010, published 2013)",
  "test": "Immunogenicity, serum IgG ELISA after repeat administration",
  "conditions": "repeat administration 20 μg/mouse, even at 1:10 dilutions of serum",
  "data": [
    {"smiles": "CC[C@H](C)[C@H](NC(=O)[C@@H](NC(=O)[C@H](Cc1ccccc1)NC(=O)[C@H](Cc1ccccc1)NC(=O)[C@@H](NC(=O)[C@H](CC(C)C)NC(=O)[C@@H](N)Cc1c[nH]c2ccccc12)C(C)C)C(C)C)C(=O)N[C@@H](C)C(=O)N[C@@H](Cc1ccc(O)cc1)C(=O)N[C@@H](Cc1ccccc1)C(=O)N[C@@H](C)C(=O)N[C@@H](CCCNC(=N)N)C(=O)O", "values": [
      {"measurement": "immunogenicity (serum IgG by ELISA)", "result": "neither FP2 nor FP4 peptides were immunogenic"}
    ]}
  ]
}
